Measurements from US11548915B2, “Composition for overcoming resistance to EGFR-targeting agent” (Pinetree Therapeutics, Inc., priority 2016, dated 2023).

Assays:
[1] = system: BxPC-3; test: MTT cell proliferation assay
[2] = system: HCC44; test: WST-1 cell viability after Ctx treatment of siRNA-treated cells; type: cell-based; conditions: Ctx 2 μM, 48 hours
[3] = system: AsPC-1; test: Annexin V-FITC apoptosis assay (FACS); conditions: AsPC-1 (Ctx^S); 4 μM, 48 hours
[4] = system: H441; test: WST-1 cell viability assay; conditions: H441 lung cancer cell line
[5] = system: H358; test: WST-1 cell viability assay; conditions: H358 lung cancer cell line
[6] = system: SK-LU-1; test: WST-1 cell viability assay; conditions: SK-LU-1 lung cancer cell line
[7] = system: A549; test: WST-1 cell viability, Ctx in combination with PI3K-Akt, Src or Raf inhibitor; type: cell-based; conditions: 48 hours
[8] = system: H2009; test: WST-1 cell viability assay; conditions: H2009 lung cancer cell line
[9] = system: AsPC-1; test: MTT cell proliferation assay
[10] = system: H460; test: WST-1 cell viability assay; conditions: H460 lung cancer cell line
[11] = system: BxPC-3 and PANC-1 cell lines; test: MTT cell viability, Ctx in combination with PI3K-Akt, Src or Raf inhibitor; type: cell-based; conditions: 72 hours
Experimental: Then, cell viability was analyzed by MTT assay.

[12] = system: FAK, Src and Akt phosphorylation in Ctx^R pancreatic cancer cell lines (BxPC-3, PANC-1, SW1990); test: Western blot of phosphorylation levels after Ctx treatment; type: cell-based; conditions: Ctx 1 μM or 0.1 μM, 24 hours
Experimental: For Western blot analysis, the cell lysate was incubated with antibodies, which recognize pEGFR (Y1173), EGFR, pFAK, FAK, pSrc, Src, pAkt, Akt, pERK1/2, ERK1/2 and β-actin, respectively, at 4° C. for 12 hours, and incubated with HRP-conjugated secondary antibodies (SantaCruz) at 25° C. for 1 hour, followed by analysis.

[13] = system: HCC44; test: WST-1 cell viability assay; conditions: HCC44 lung cancer cell line
[14] = system: Ctx^R BxPC-3 xenograft; test: In vivo tumor growth inhibition, xenograft; conditions: intravenous, compared to the control PBS
[15] = system: Ctx^R pancreatic cancer cell lines; test: MTT cell proliferation after NRP1, integrin-β1 or cMet siRNA; conditions: 2 μM, 48 hours
[16] = Mouse weight during xenograft experiments; conditions: BxPC-3, PANC-1 and AsPC-1 xenograft mice; compared to PBS
[17] = system: Calu-3; test: WST-1 cell viability assay
[18] = system: A549; test: WST-1 cell viability after Ctx treatment of siRNA-treated cells; type: cell-based; conditions: Ctx 2 μM, 48 hours
[19] = system: HCC2108; test: WST-1 cell viability assay; conditions: HCC2108 lung cancer cell line
[20] = system: H522; test: WST-1 cell viability assay; conditions: H522 lung cancer cell line
[21] = system: H1975; test: WST-1 cell viability assay
[22] = system: PANC-1; test: Annexin V-FITC apoptosis assay (FACS); conditions: PANC-1 (Ctx^R); 4 μM, 48 hours
[23] = system: A549; test: WST-1 cell viability assay; conditions: A549 lung cancer cell line
[24] = system: Ctx^R BxPC-3 and PANC-1; test: FACS analysis of receptor endocytosis; conditions: 2 μM, 0-60 min, 37° C., serum-free; FACS cell surface level
[25] = system: H1299; test: WST-1 cell viability assay; conditions: H1299 lung cancer cell line
[26] = system: Miapaca-2; test: Annexin V-FITC apoptosis assay (FACS); conditions: Miapaca-2 (Ctx^S); 4 μM, 48 hours
[27] = system: Capan-2; test: MTT cell proliferation assay
[28] = system: Miapaca-2; test: MTT cell proliferation assay
[29] = system: Calu-1; test: WST-1 cell viability assay; conditions: Calu-1 lung cancer cell line

cetuximab [Ctx]
cell growth inhibition (MTT) ([1]; BxPC-3 (Ctx^R), 0, 1, 2, 4 μM twice at 48-hour intervals, total 96 hours): showed cell growth inhibition, unlike Ctx
Responsiveness to Cetuximab ([1]; BxPC-3 pancreatic cancer cell line): Resistant
resistance to Ctx when NRP1 expression is inhibited ([2]; NRP1 siRNA 100 nM): overcame resistance to Ctx; also recorded: could overcome resistance to Ctx
resistance to Ctx when TGFβ2 expression is inhibited ([2]; TGFβ2 siRNA 100 nM): could not overcome resistance to Ctx
resistance to Ctx when VEGFR1 expression is inhibited ([2]; VEGFR1 siRNA 100 nM): could not overcome resistance to Ctx
resistance to Ctx when cMet expression is inhibited ([2]; cMet siRNA 100 nM): could not overcome resistance to Ctx
resistance to Ctx when integrin β1 expression is inhibited ([2]; integrin β1 siRNA 100 nM): could not overcome resistance to Ctx
resistance to Ctx when integrin β3 expression is inhibited ([2]; integrin β3 siRNA 100 nM): overcame resistance to Ctx; also recorded: could overcome resistance to Ctx
apoptosis (annexin V-FITC) [3]: induced apoptosis in the same manner
Responsiveness to Cetuximab [4]: Resistant
Responsiveness to Cetuximab [5]: Resistant
Responsiveness to Cetuximab [6]: Resistant
resistance to Ctx when phosphorylation of Src is inhibited ([7]; 5, 2 and 1 μM SU6656 with 2 μM Ctx): could overcome resistance to Ctx
resistance to Ctx when phosphorylation of Raf is inhibited ([7]; 5, 2 and 1 μM sorafenib with 2 μM Ctx): could not overcome resistance to Ctx
resistance to Ctx when phosphorylation of Akt is inhibited ([7]; 50, 20 and 10 μM LY294002 with 2 μM Ctx): could overcome resistance to Ctx
Responsiveness to Cetuximab [8]: Resistant
cell growth inhibition (MTT) ([9]; AsPC-1 (Ctx^S), 0, 1, 2, 4 μM twice at 48-hour intervals, total 96 hours): showed the same cell growth inhibitory ability
Responsiveness to Cetuximab ([9]; AsPC-1 pancreatic cancer cell line): Sensitive
Responsiveness to Cetuximab [10]: Resistant
resistance to Ctx (cell viability) when phosphorylation of Raf is inhibited ([11]; 2.5 μM sorafenib (Raf inhibitor) with 2 μM Ctx): resistance to Ctx could not be overcome
resistance to Ctx (cell viability) when phosphorylation of Src is inhibited ([11]; 5 μM SU6656 (Src inhibitor) with 2 μM Ctx): could overcome resistance to Ctx
resistance to Ctx (cell viability) when phosphorylation of Akt is inhibited ([11]; 50 μM LY294002 (PI3K-Akt inhibitor) with 2 μM Ctx): could overcome resistance to Ctx
phosphorylation levels of FAK, Src and Akt [12]: maintain high phosphorylation levels of FAK, Src and Akt
Responsiveness to Cetuximab [13]: Resistant
tumor growth (tumor volume, tumor weight) [14]: showed resistance
cell growth inhibitory ability when expression of NRP1 is inhibited ([15]; NRP1 siRNA): resistance to Ctx still appeared
resistance to Ctx when cMet expression is inhibited ([15]; cMet siRNA): could not overcome resistance to Ctx
resistance to Ctx when expression of integrin β1 is inhibited ([15]; integrin β1 siRNA): resistance to Ctx was overcome
change in the weight of the mice (toxicity) [16]: little or no change in the weight of the mice
cell growth inhibitory activity (WST-1) ([17]; Calu-3, NRP1-expressing, 0, 1, 2, and 4 μM, 48 hours): showed the same inhibitory activity against cell growth
Responsiveness to Cetuximab ([17]; Calu-3 lung cancer cell line): Sensitive
resistance to Ctx when NRP1 expression is inhibited ([18]; NRP1 siRNA 100 nM): overcame resistance to Ctx; also recorded: could overcome resistance to Ctx
resistance to Ctx when TGFβ2 expression is inhibited ([18]; TGFβ2 siRNA 100 nM): could not overcome resistance to Ctx
resistance to Ctx when VEGFR1 expression is inhibited ([18]; VEGFR1 siRNA 100 nM): could not overcome resistance to Ctx
resistance to Ctx when cMet expression is inhibited ([18]; cMet siRNA 100 nM): could not overcome resistance to Ctx
resistance to Ctx when integrin β1 expression is inhibited ([18]; integrin β1 siRNA 100 nM): could not overcome resistance to Ctx
resistance to Ctx when integrin β3 expression is inhibited ([18]; integrin β3 siRNA 100 nM): overcame resistance to Ctx; also recorded: could overcome resistance to Ctx
Responsiveness to Cetuximab [19]: Resistant
Responsiveness to Cetuximab [20]: showing resistance to Ctx due to non-expression of EGFR
Responsiveness to Cetuximab ([20]; listed as Cetuximab): Resistant
cell growth inhibitory activity (WST-1) ([21]; H1975, NRP1-expressing, 0, 1, 2, and 4 μM, 48 hours): showed the same inhibitory activity against cell growth
Responsiveness to Cetuximab ([21]; H1975 lung cancer cell line): Sensitive
apoptosis (annexin V-FITC) [22]: induced apoptosis, unlike Ctx
Responsiveness to Cetuximab [23]: Resistant
endocytosis of EGFR [24]: increased the endocytosis of EGFR
Responsiveness to Cetuximab [25]: Resistant
apoptosis (annexin V-FITC) [26]: induced apoptosis in the same manner
cell growth inhibition (MTT) ([27]; Capan-2 (Ctx^R), 0, 1, 2, 4 μM twice at 48-hour intervals, total 96 hours): showed cell growth inhibition, unlike Ctx
Responsiveness to Cetuximab ([27]; Capan-2 pancreatic cancer cell line): Resistant
cell growth inhibition (MTT) ([28]; Miapaca-2 (Ctx^S), 0, 1, 2, 4 μM twice at 48-hour intervals, total 96 hours): showed the same cell growth inhibitory ability
Responsiveness to Cetuximab ([28]; Miapaca-2 pancreatic cancer cell line): Sensitive
Responsiveness to Cetuximab [29]: Resistant

Entries after “also recorded” stand apart in the source; their conditions may differ.
